Binding of CDR-mutated scFvs to a peptide of the spike HR2 region

The measurements come from Engelhart et al. 2022 (doi:10.1038/s41597-022-01779-4) through the FLAb antibody collection.

Target: peptide PDVDLGDISGINAS, taken from heptad repeat 2 (HR2) of SARS-CoV-2 spike.

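Phage display of a naive human antibody library on the peptide gave the parent. Variants in AAYL52 differ from the parent at up to three CDR positions; double and triple changes were sampled at random. The assay is AlphaSeq: two haploid yeast populations carry antibody and antigen on their surface. Mating (16 h, 30 °C) was followed by selection of diploids and sequencing of their barcodes. Scores were corrected for input abundance and mapped to Kd with protein pairs of known affinity run in the same pool. Mating was done three times.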

Ab-95 is the parent antibody, in scFv form: VH, then the linker GGGGSGGGGSGGGGS, then VL. The heavy chain is unchanged in all variants.
VH: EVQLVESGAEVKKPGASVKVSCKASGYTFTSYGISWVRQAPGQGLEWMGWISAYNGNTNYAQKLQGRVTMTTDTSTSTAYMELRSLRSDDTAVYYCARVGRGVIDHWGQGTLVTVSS
VL: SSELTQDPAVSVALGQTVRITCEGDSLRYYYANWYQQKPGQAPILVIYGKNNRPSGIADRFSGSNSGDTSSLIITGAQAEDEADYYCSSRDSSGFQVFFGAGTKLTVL

Sequences are complete VL domains. Values are log10 of the apparent Kd in nM; lower means stronger binding. Replicates are averaged; those with no signal do not enter the mean. An entry "n.d." has no value in the source: the pair was not observed among the diploids in that replicate. This suggests poor binding but is not conclusive. In this assay the parent's reference entry averaged 2.31; its copy inside this library read 2.25. Background: pairings of library AAYL52 with three empty control strains gave a value in 28% of cases (median 3.91, 5th percentile 2.90). Values in that range, when seen in few replicates, are hard to tell from nonspecific mating. The control count says in how many pairings with the empty strains this scFv gave a signal, with their mean in brackets.

| VL | replicates, log10 nM | log10 Kd (nM), mean | control signals |
|---|---|---|---|
| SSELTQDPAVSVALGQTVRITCTDDSLRQYYANWYQQKPGQAPILVIYGKNNRPSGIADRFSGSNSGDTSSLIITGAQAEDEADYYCSSRDSSGFQVFFGAGTKLTVL | 2.76 / 3.08 / 3.20 | 3.01 | 4 of 9 (3.94) |
| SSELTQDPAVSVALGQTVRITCEGCSLRYYYANWYQQKPGQAPILVIYGKNNHPSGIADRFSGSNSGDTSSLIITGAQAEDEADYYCSSRDSFGFQVFFGAGTKLTVL | 3.25 / n.d. / n.d. | 3.25 | 3 of 9 (3.41) |
| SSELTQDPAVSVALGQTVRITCEGDSYRYYYANWYQQKPGQAPILVIYGKNNRPSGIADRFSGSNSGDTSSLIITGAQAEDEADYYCSSRDRTGFQVFFGAGTKLTVL | 3.93 / 2.50 / 4.42 | 3.61 | 1 of 9 (3.81) |
| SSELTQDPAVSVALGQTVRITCEGDSERYYYANWYQQKPGQAPILVIYGKCNRPSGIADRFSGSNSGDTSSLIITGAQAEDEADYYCSSRDSSGMQVFFGAGTKLTVL | 4.91 / 4.17 / 4.13 | 4.40 | 4 of 9 (4.01) |
| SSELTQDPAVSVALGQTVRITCERDSLRYYYANWYQQKPGQAPILVIYGKNQRPSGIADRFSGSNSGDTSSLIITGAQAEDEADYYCSSRDSSGGQVFFGAGTKLTVL | n.d. / n.d. / n.d. | n.d. | 1 of 9 (4.35) |
| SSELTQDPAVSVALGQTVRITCEGDSLRYPYANWYQQKPGQAPILVIYGKNNRPSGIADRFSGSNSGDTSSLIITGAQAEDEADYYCSSRLSSLFQVFFGAGTKLTVL | 3.45 / 2.82 / n.d. | 3.14 | 1 of 9 (3.78) |
| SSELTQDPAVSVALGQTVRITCEGDSLRYYYANWYQQKPGQAPILVIYGKNNRPAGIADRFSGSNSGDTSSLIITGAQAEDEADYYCSSRDSSGPKVFFGAGTKLTVL | 3.30 / 2.84 / 2.56 | 2.90 | 7 of 9 (3.70) |
| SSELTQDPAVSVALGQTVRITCRGDSLRYYYANWYQQKPGQAPILVIYGKNNRPIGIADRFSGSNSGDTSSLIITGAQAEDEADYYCSPRDSSGFQVFFGAGTKLTVL | n.d. / n.d. / n.d. | n.d. | 0 of 9 |
| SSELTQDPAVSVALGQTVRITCEGASERYYYANWYQQKPGQAPILVIYGKNNRPTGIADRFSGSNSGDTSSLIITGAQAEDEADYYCSSRDSSGFQVFFGAGTKLTVL | 3.72 / 3.51 / n.d. | 3.62 | 1 of 9 (5.72) |
| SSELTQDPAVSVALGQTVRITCEGDHRRYYYANWYQQKPGQAPILVIYGKNNRPSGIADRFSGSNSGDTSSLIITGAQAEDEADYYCSSRDFSGFQVFFGAGTKLTVL | n.d. / n.d. / n.d. | n.d. | 1 of 9 (4.60) |
| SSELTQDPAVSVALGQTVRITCEGDNLRYYYNNWYQQKPGQAPILVIYGKNNRPSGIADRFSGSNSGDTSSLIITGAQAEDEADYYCSSRDSSGNQVFFGAGTKLTVL | 2.75 / n.d. / n.d. | 2.75 | 2 of 9 (3.37) |
| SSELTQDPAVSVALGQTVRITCEGDSLRYYYANWYQQKPGQAPILVIYGKNNQPSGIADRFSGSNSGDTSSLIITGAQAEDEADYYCTSRDSSGFPVFFGAGTKLTVL | 3.97 / 3.34 / 3.91 | 3.74 | 2 of 9 (3.80) |
| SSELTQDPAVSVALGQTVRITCGGDSLRYYYANWYQQKPGQAPILVIYGKNNRPFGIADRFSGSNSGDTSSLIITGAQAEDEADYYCSSRDSRGFQVFFGAGTKLTVL | 2.71 / 2.53 / 2.31 | 2.52 | 3 of 9 (3.18) |
| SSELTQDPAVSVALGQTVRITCEGDSMRYYYAPWYQQKPGQAPILVIYGKNNRPSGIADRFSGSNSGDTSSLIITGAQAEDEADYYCSSRDKSGFQVFFGAGTKLTVL | 1.75 / 1.75 / 1.71 | 1.74 | 0 of 9 |
| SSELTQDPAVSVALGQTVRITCEGDQLRYYYRNWYQQKPGQAPILVIYGKNNRPSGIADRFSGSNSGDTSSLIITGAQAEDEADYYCSSRDSSGFQVSFGAGTKLTVL | n.d. / n.d. / n.d. | n.d. | 1 of 9 (4.16) |
| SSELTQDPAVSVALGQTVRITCEGDDLRYYYANWYQQKPGQAPILVIYIKNNRPSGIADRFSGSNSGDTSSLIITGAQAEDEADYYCSSRDSSGFQVFFGAGTKLTVL | 4.00 / n.d. / 4.06 | 4.03 | 2 of 9 (3.27) |
| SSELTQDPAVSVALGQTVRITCEGDSLRYYYANWYQQKPGQAPILVIYEKNNRRSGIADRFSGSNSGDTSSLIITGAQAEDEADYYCSSRDNSGFQVFFGAGTKLTVL | 3.04 / 3.32 / n.d. | 3.18 | 0 of 9 |
| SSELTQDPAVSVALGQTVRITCEGDRLRYYYANWYQQKPGQAPILVIYGKNNRPSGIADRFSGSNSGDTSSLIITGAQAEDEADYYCSTRDSSGFQVFFGAGTKLTVL | 3.56 / n.d. / n.d. | 3.56 | 2 of 9 (4.88) |
| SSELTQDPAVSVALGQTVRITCEGDSLRCYYALWYQQKPGQAPILVIYGKNNRPSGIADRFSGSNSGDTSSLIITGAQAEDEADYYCSSRDSSGFQVFFGAGTKLTVL | 2.98 / 4.42 / 2.25 | 3.22 | 3 of 9 (3.96) |
| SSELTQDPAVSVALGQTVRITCEGDSLPYYYALWYQQKPGQAPILVIYGKNNRPHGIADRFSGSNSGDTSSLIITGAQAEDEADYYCSSRDSSGFQVFFGAGTKLTVL | 3.37 / n.d. / n.d. | 3.37 | 1 of 9 (3.54) |
| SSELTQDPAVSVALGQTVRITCEGQSLRYYYANWYQQKPGQAPILVIYGKNNRPSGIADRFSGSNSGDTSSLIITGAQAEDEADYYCSRTDSSGFQVFFGAGTKLTVL | 4.72 / 3.93 / 3.49 | 4.05 | 4 of 9 (4.31) |
| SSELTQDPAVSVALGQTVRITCEGDSQRYYYANWYQQKPGQAPILVIYGKNNRPSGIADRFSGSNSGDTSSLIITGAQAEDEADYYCSSCDSFGFQVFFGAGTKLTVL | 3.93 / n.d. / 3.44 | 3.68 | 4 of 9 (3.93) |
| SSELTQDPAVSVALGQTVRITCEGDSLRYPYGNWYQQKPGQAPILVIYGKNNRPSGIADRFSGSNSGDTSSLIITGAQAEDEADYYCSSRISSGFQVFFGAGTKLTVL | 3.03 / 2.45 / 2.48 | 2.65 | 6 of 9 (4.16) |
| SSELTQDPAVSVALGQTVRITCEGDSLRYYRANWYQQKPGQAPILVIYGKNPRPSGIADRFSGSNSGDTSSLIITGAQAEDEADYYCSMRDSSGFQVFFGAGTKLTVL | 4.94 / 4.78 / n.d. | 4.86 | 1 of 9 (4.91) |
| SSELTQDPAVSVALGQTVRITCEGDSFRYYYAPWYQQKPGQAPILVIYGKNRRPSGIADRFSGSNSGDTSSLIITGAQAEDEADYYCSSRDSSGFQVFFGAGTKLTVL | n.d. / 5.64 / n.d. | 5.64 | 5 of 9 (3.96) |